Antibody variant affinities, Ab-14 light chain, assay 1

The target is the same throughout: PDVDLGDISGINAS, from the HR2 region of SARS-CoV-2 spike.

Parent scFv Ab-14: VH joined to VL by a 15-residue (Gly4Ser)3 linker. Changes lie in the light chain CDRs alone.
VH: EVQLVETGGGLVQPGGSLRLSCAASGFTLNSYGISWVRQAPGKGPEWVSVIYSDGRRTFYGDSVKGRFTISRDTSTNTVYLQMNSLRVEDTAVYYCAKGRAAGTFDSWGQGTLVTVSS
VL: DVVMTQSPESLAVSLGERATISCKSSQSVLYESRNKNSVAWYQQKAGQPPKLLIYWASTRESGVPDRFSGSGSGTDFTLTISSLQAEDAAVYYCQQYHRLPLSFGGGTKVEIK

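The parent was found by panning a naive human phage display library on the peptide. In library AAYL50, one, two or three CDR residues were substituted; doubles and triples were drawn at random. In AlphaSeq, yeast of one mating type display the scFv and yeast of the other type display the target. Pairs that bind mate more often; barcode pairs of the diploids are counted by sequencing. The ratio of observed to expected reads was calibrated, replicate by replicate, on BCL2-family standards whose Kd was known from biolayer interferometry. Mating was done three times.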

Positions count from residue 1 of the parent VL; S103P puts P in place of S. All variants listed here change S103 of the VL, counted from its first residue. Numbers give log10(Kd / nM), so 0 is 1 nM and 3 is 1 µM. Smaller is tighter. Averages over replicates are reported, and they cover detected replicates only. "ND" marks a missing value. The strain was present, yet no cells mated with the target were sequenced in that replicate, which points to weak or no binding. As a blank, each scFv also met three strains without target: over library AAYL50, 18% of these pairings were detected, typically at 4.19 and seldom below 2.99.

changes,"replicates, log10 nM","log10 Kd (nM), mean"
S103P,3.51 / 4.05 / ND,3.78
L30K/V39S/S103M,4.52 / 3.15 / ND,3.83
K36N/Q95A/S103A,4.10 / 3.40 / 4.07,3.86
S26W/R99Y/S103P,ND / ND / ND,ND
S38M/W56G/S103N,0.48 / 0.69 / 0.74,0.64
E32L/R34P/S103A,ND / ND / ND,ND
S26E/R60Q/S103K,ND / 2.41 / ND,2.41
S62E/R99T/S103D,0.33 / 0.58 / 0.49,0.46
H98W/S103F,2.00 / 1.96 / 2.01,1.99
Q96W/L102Q/S103G,1.15 / 1.17 / 1.33,1.22
R34T/S62G/S103H,0.70 / 0.96 / 0.77,0.81
W56R/S103Y,1.52 / 1.51 / 1.75,1.59
K36E/R60C/S103E,ND / ND / ND,ND
K24E/R34K/S103Q,2.85 / 2.00 / 3.42,2.75
S25D/R34Q/S103M,0.93 / 1.10 / 1.14,1.06
S33Y/T59K/S103G,2.15 / 1.70 / 2.29,2.05
P101M/S103E,1.63 / 1.38 / 1.20,1.41
S38R/S103E,3.02 / ND / ND,3.02
Q95N/L102M/S103K,ND / ND / ND,ND
S28R/Y31A/S103P,4.02 / 5.13 / ND,4.57
S62Y/Q96W/S103E,1.42 / 1.44 / 1.76,1.54
N35F/H98W/S103Q,0.97 / 1.15 / 1.26,1.12
S26R/Y97H/S103K,ND / 1.97 / ND,1.97
K36R/Q96I/S103D,ND / ND / 4.68,4.68
Q96V/S103P,0.72 / 0.80 / 0.74,0.75
S38I/W56V/S103T,ND / 2.35 / ND,2.35
S25M/S33E/S103K,0.27 / 0.61 / 0.38,0.42
S26I/R99A/S103D,4.35 / 2.93 / ND,3.64
A40P/A57Q/S103G,6.10 / 5.28 / ND,5.69
V29H/P101F/S103V,ND / ND / ND,ND
S58K/Q95N/S103G,1.21 / 1.54 / 1.66,1.47
L30S/R60E/S103M,ND / ND / ND,ND
V39Q/H98C/S103H,ND / ND / ND,ND
N37E/T59W/S103T,ND / ND / ND,ND
R60P/P101C/S103P,ND / ND / ND,ND
Q96L/H98L/S103W,0.90 / 1.04 / 0.91,0.95

The last 3 entries again:

changes,"replicates, log10 nM","log10 Kd (nM), mean"
N37E/T59W/S103T,ND / ND / ND,ND
R60P/P101C/S103P,ND / ND / ND,ND
Q96L/H98L/S103W,0.90 / 1.04 / 0.91,0.95

For reference, the parent read 0.65 as the reference entry and 1.68 as a member of this library.

Source: Engelhart et al. 2022 (doi:10.1038/s41597-022-01779-4), MIT Lincoln Laboratory and A-Alpha Bio; data file from the FLAb repository.